Experiment [1] addresses T1, Human GPR40 (Homo sapiens, UniProt O14842). The experiment is described as follows: Inositol Phosphate Turnover (IP1) assay in HEK cells stably expressing human GPR40. It is filed as cell-based. The settings on record: read-out: Human GPR40 IP1, EC50. As to the method:
(§1) Human and mouse GPR40 stable cell-lines were generated in CHO cells stably expressing NFAT BLA (Beta-lactamase). A human GPR40 stable cell-line was generated in HEK cells stably expressing the acquorin expressing reporter. The expression plasmids were transfected using lipofectamine (Life Technologies) following manufacturer's instructions. Stable cell-lines were generated following drug selection.
The assay was performed in 96-well format. HEK cells stably expressing human GPR40 were plated to be 60-80% confluent within 72 h. After 72 h, the plates were aspirated and the cells washed with inositol-free DMEM (ICN). The wash media was replaced with 150 μL of 3H-inositol labeling media (inositol-free media containing 0.4% human albumin or 0.4% mouse albumin, 1× pen/strep antibiotics, glutamine, 25 mM HEPES to which was added 3H-myo-inositol NEN #NET114A 1 mCi/mL, 25 Ci/mmol diluted 1:150 in loading media with a final specific radioactivity of 1 μCi/150 μL). Alternatively, the human and mouse albumin were added after the overnight labeling step before the addition of LiCl.
The assay was typically run the next day after 18 h labeling. On the day of the assay, 5 μL of 300 mM LiCl were added to all wells and incubated at 37 degrees for 20 min. 0.75 μL of 200× compounds were added and incubated with the cells for 60 min at 37 degrees. The media was then aspirated off and the assay terminated with the addition of 60 μL 10 mM formic acid. The cells were lysed for 60 min at room temperature. 15-30 μL of lysate was mixed with 70 μL/1 mg YSi SPA beads (Amersham) in clear bottom Isoplates. The plates were shaken for 2 h at room temperature. Beads were allowed to settle and the plates are counted in the Wallac Microbeta.

The chains behind the UniProt entries cited, without tags or fusion partners.
UniProt O14842, whole entry: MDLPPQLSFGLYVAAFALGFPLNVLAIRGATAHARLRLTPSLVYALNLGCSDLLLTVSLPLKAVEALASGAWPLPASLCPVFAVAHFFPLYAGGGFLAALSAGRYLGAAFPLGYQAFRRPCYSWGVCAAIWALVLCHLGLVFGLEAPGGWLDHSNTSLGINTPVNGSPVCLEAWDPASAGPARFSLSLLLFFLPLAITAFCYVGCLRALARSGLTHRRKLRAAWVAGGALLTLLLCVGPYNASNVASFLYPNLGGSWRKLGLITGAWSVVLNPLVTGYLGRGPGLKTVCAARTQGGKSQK

The target in experiment [2] is T1, Human GPR40. The experiment is described as follows: FLIPR assay, agonist-induced calcium mobilization in GPR40/CHO NFAT BLA cells. The conditions noted are these: read-out: Human GPR40, FLIPR, EC50. It is filed as cell-based. As to the method: as §1
FLIPR (Fluorimetric Imaging Plate Reader, Molecular Devices) assays were performed to measure agonist-induced calcium mobilization of the stable clones. For the FLIPR assay, one day before assay, GPR40/CHO NFAT BLA cells were seeded into black-wall-clear-bottom 384-well plates (Costar) at 1.4×10e4 cells/20 μL medium/well. The cells were incubated with 20 μl/well of the assay buffer (HBSS, 0.1% BSA, 20 mM HEPES, 2.5 mM probenecid, pH 7.4) containing 8 μM fluo-4, AM, 0.08% pluronic acid at room temperature for 100 minutes. Fluorescence output was measured using FLIPR. Compounds were dissolved in DMSO and diluted to desired concentrations with assay buffer. 13.3 μL/well of compound solution was added.
(In general: Calcium assays in cells follow changes in intracellular calcium, usually with a dye or a luminescent sensor.)

A word on the EC50: it is the concentration that produces a half-maximal response.

On to `COc1ccc(F)c(-c2ccc3c(c2-c2ccnn2C(C)C)CC[C@H]3Oc2cccc([C@@H](CC(=O)O)C3CC3)c2)c1`, for which the EC50 on Human GPR40 [1] was found to be 134 nM; on Human GPR40 [2] it was 2 nM.
For the compound `COc1ccc(F)c(-c2ccc3c(c2-c2ccnn2C)CC[C@H]3Oc2cccc([C@@H](CC(=O)O)C3CC3)c2)c1`, the figures for the EC50 at Human GPR40 [1] and on Human GPR40 [2] were 883 nM and 102 nM, respectively.
As for `COc1ccc(F)c(-c2ccc3c(c2COC(C)(C)C)CC[C@H]3Oc2cccc([C@@H](CC(=O)O)C3CC3)c2)c1`, the EC50 is 51 nM on Human GPR40 [1] and 1 nM on Human GPR40 [2].
On to `COc1ccc(F)c(-c2ccc3c(c2-c2cnn(C)c2C)CC[C@H]3Oc2cccc([C@H](C3CC3)[C@H](C)C(=O)O)c2)c1`, for which the EC50 at Human GPR40 [1] turned out to be 42 nM; at Human GPR40 [2] it was 1 nM.
As to `COc1ccc(F)c(-c2ccc3c(c2Cl)CC[C@H]3Oc2cccc([C@@H](CC(=O)O)C3CC3)c2)c1` [Example 36], the EC50 on Human GPR40 [2] came to 7 nM.
In the case of `COc1ccc(F)c(-c2ccc3c(c2-c2cn(C)nn2)CC[C@H]3Oc2cccc([C@H](C3CC3)[C@H](C)C(=O)O)c2)c1`, the values for the EC50 on Human GPR40 [1] and at Human GPR40 [2] were 411 nM and 22 nM, respectively.
For `COc1ccc(F)c(-c2ccc3c(c2C2CC2)CC[C@H]3Oc2cccc([C@@H](CC(=O)O)C3CC3)c2)c1`, in that order: 94 nM and 0.8 nM.
In the case of `COc1ccc(F)c(-c2ccc3c(c2-c2cnn4ccccc24)CC[C@H]3Oc2cccc([C@H](C3CC3)[C@H](C)C(=O)O)c2)c1`, the EC50 on Human GPR40 [1] was 28 nM; on Human GPR40 [2], 0.8 nM.
For `COc1ccc(F)c(-c2ccc3c(c2-c2cccn2C(=O)OC(C)(C)C)CC[C@H]3Oc2cccc([C@@H](CC(=O)O)C3CC3)c2)c1`, in that order: 823 nM and 3 nM.
As for `COc1cc(-c2ccc3c(c2)CC[C@H]3Oc2cccc([C@@H](CC(=O)O)C3CC3)c2)c(F)cn1`, the values for the half-maximal effective concentration (EC50) on Human GPR40 [1] and at Human GPR40 [2] were 128 nM and 4 nM, respectively.
As to `COc1ccc(F)c(-c2ccc3c(c2/C=C/C(C)(C)C)CC[C@H]3Oc2cccc([C@@H](CC(=O)O)C3CC3)c2)c1`, the EC50 at Human GPR40 [1] amounted to 243 nM; on Human GPR40 [2], 4 nM.
With `C=C(C)c1c(-c2cc(OC)ccc2F)ccc2c1CC[C@H]2Oc1cccc([C@@H](CC(=O)O)C2CC2)c1`, the EC50 at Human GPR40 [1] turned out to be 232 nM; on Human GPR40 [2], 6 nM.
For `COc1ccc(F)c(-c2ccc3c(c2C2CCCC2)CC[C@H]3Oc2cccc([C@@H](CC(=O)O)C3CC3)c2)c1`, in that order: 347 nM and 3 nM.
For the compound `COc1ccc(F)c(-c2ccc3c(c2-c2cccc4ccn(C)c24)CC[C@H]3Oc2cccc([C@@H](CC(=O)O)C3CC3)c2)c1`, the EC50 at Human GPR40 [1] stood at 53 nM; on Human GPR40 [2] it was 0.8 nM.
With `COc1ccc(F)c(-c2ccc3c(c2-c2ccsc2)CC[C@H]3Oc2cccc([C@@H](CC(=O)O)C3CC3)c2)c1`, the EC50 on Human GPR40 [1] is 160 nM; on Human GPR40 [2], 0.7 nM.
In the case of `COc1ccc(F)c(-c2ccc3c(c2-c2cc(C(F)(F)F)nn2C)CC[C@H]3Oc2cccc([C@@H](CC(=O)O)C3CC3)c2)c1`, the EC50 on Human GPR40 [1] was found to be 391 nM; on Human GPR40 [2], 4 nM.
With `COc1ccc(F)c(-c2ccc3c(c2-c2csc(N4CCCC4)n2)CC[C@H]3Oc2cccc([C@@H](CC(=O)O)C3CC3)c2)c1`, the values for the EC50 at Human GPR40 [1] and on Human GPR40 [2] were 1160 nM and 13 nM, respectively.
For the compound `COc1ccc(F)c(-c2ccc3c(c2C=C(C)C)CC[C@H]3Oc2cccc([C@@H](CC(=O)O)C3CC3)c2)c1`, the EC50 turned out to be 96 nM at Human GPR40 [1] and 0.6 nM on Human GPR40 [2].
The like results for `COc1ccc(F)c(-c2ccc3c(c2/C=C/C2CCCCC2)CC[C@H]3Oc2cccc([C@@H](CC(=O)O)C3CC3)c2)c1` were, in that order, 186 nM and 0.5 nM.

The values are drawn from patent US9957219B2, “Antidiabetic bicyclic compounds” (Merck Sharp & Dohme Corp., priority 2013, dated 2018).
